How the values were obtained:
myeloperoxidase [1] = molecular target: T1, myeloperoxidase (Homo sapiens (Human), UniProt P05164); experiment: MPO Peroxidation Assay (Amplex Red Assay); conditions: read-out: Amplex Red Assay IC50 value, potency range class, tested form: 2TFA
Protocol: MPO Peroxidation Assay (Amplex Red Assay)
MPO peroxidation activity was measured in 100 mM KPi (pH 7.4) by utilizing the non-fluorescent reagent Amplex Red (Invitrogen Cat. #A12222) which can be oxidized to the highly fluorescent resorufin. Amplex Red is oxidized by the peroxidase action of MPO to resorufin. Reactions were carried out in 50 μL total volume by adding a 25 μL mixture of 200 pM myeloperoxidase and 40 nM H2O2(Sigma #349887) to 100 nL inhibitor in 100% DMSO in a 384 well Perkin Elmer Optiplate. Enzyme and compound were preincubated for ten minutes at rt.
After the ten minute preincubation, 25 μL of an Amplex Red mixture containing 200 μM Amplex Red and 10 mM H2O2 was added to the plate. Kinetic determinations were carried out immediately on a Perkin Elmer Envision (15 minute kinetic read, Ex: 535 nm, Em: 590 nm).
IC50 values were calculated by determining the slope of the linear portion of the kinetic trace (180-540 secs), and using that calculated slope to determine % inhibition occurring at each concentration of inhibitor using the following equation:
(§1) [formula] where A=minimal Y value (activity level of inhibited sample), B=maximal Y value (activity level of uninhibited sample), C=Log IC50, D=Hill Slope, x=concentration of inhibitor. MPO Chlorination Assay (APF Assay)

Sequences of proteins named here, by UniProt entry; tags and fusion partners are left off. Residues count along the entry.
UniProt P05164, 49-745 limits assumed: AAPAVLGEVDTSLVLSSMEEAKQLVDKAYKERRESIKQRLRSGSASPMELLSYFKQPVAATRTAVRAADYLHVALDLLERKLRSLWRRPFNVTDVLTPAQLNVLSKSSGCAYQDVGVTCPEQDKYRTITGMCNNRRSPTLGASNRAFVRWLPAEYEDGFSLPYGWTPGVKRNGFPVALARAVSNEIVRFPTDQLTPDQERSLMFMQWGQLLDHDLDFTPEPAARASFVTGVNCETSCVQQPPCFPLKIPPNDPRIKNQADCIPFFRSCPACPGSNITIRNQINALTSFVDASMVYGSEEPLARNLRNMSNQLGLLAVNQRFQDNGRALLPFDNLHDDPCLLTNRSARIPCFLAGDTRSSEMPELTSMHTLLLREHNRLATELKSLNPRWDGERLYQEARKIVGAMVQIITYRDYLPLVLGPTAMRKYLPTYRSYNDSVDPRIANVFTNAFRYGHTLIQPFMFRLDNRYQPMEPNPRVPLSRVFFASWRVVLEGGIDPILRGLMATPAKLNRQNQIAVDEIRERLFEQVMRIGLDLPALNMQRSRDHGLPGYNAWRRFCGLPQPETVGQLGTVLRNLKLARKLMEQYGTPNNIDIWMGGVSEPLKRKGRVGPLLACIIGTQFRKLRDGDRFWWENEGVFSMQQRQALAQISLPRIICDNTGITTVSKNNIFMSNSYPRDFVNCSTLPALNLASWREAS

myeloperoxidase [2] = molecular target: T1, myeloperoxidase; experiment: MPO Chlorination Assay (APF Assay); conditions: read-out: APF Assay IC50 value, potency range class, tested form: 2TFA
Protocol: as §1
MPO chlorination activity was measured in 100 mM KPi (pH 7.4) by utilizing the non-fluorescent reagent Aminophenyl fluorescein (APF, Invitrogen Cat. #A36003). APF is cleaved by (—OCl) to yield the fluorescent compound fluorescein. Reactions were carried out in 50 μL total volume by adding a 25 μL mixture of 200 pM myeloperoxidase and 120 mM NaCl to 100 nL inhibitor in 100% DMSO in a 384 well, non-binding surface clear bottom plate (Corning #3655). Enzyme, inhibitor, and chloride were preincubated for ten minutes at rt.
After the ten minute preincubation, 25 μL of an APF mixture containing […], 120 mM NaCl and 10 μM H2O2 was added to the plate using the internal dispensing system of a Hammatsu FDSS 6000. Kinetic determinations were carried out immediately on the FDSS 6000 (3 minute kinetic read, 1 read every second, ex: 485 nm, em: 535 nm). IC50 values for inhibitors were calculated by taking the slope of the linear portion of the kinetic measurement (20 seconds to ˜80-120 secs). […]
[formula] where A=minimal Y value (activity level of inhibited sample), B=maximal Y value (activity level of uninhibited sample), C=Log IC50, D=Hill Slope, x=concentration of inhibitor.

SMILES | IC50 (myeloperoxidase [1]) | IC50 (myeloperoxidase [2])
Nc1cc(C(CCNC23CCC(c4ccccc4)(CC2)[C@H](O)C3)c2cnn(CCc3cccc(O)c3)c2)c2nn[nH]c2n1 (stereo partly shown) | 1 to 100 nM | 1 to 100 nM
COCCN(CCC(c1cnn(Cc2cccc(O)c2)c1)c1cc(N)nc2[nH]nnc12)C12CCC(c3ccccc3)(CC1)[C@H](O)C2 (stereo partly shown) | 101 to 999 nM | 1 to 100 nM
NC(=O)CN(CCC(c1cnn(Cc2cccc(O)c2)c1)c1cc(N)nc2[nH]nnc12)C12CCC(c3ccccc3)(CC1)[C@H](O)C2 (stereo partly shown) | 101 to 999 nM | 101 to 999 nM
Nc1cc(C(CCN(CCO)C23CCC(c4ccccc4)(CC2)CC3)c2cnn(Cc3cccc(O)c3)c2)c2nn[nH]c2n1 (stereo not shown) | 1 to 100 nM | 1 to 100 nM
Nc1cc(C(CCNC23CCC(c4ccccc4)(CC2)CC3)c2cnn(Cc3cccc(O)c3)c2)c2nn[nH]c2n1 (stereo not shown) | 1 to 100 nM | 1 to 100 nM

Source: patent US11059818B2, “Triazolopyridine inhibitors of myeloperoxidase” (BRISTOL-MYERS SQUIBB COMPANY, priority 2016, dated 2021)
